Measurements taken from US20120065614A1, “POLYIONIC TRANSITIONAL METAL PHOSPHORESCENT COMPLEX/POLYMER HYBRID SYSTEMS FOR BIOIMAGING AND SENSING APPLICATIONS” (UNIVERSITY OF NORTH TEXAS, priority 2010, published 2012).

Legend:
[1] = Steady-state photoluminescence spectra (emission/excitation maxima); type: physicochemical; conditions: aqueous solution of 0.001M
Description: Photoluminescence characterization: All photoluminescence studies were carried with the PTI spectrofluorometer described below. For titrations, 2.5-mL aliquots were placed in the quartz cuvette and 0.1 mL of gel was added at every titration point with magnetic stirring. Titration data were plotted as I/Io vs. volume of gel added (where I=intensity of sample after addition of gel and 1o=intensity of pure aqueous gold phosphor solution). Lifetime data were analyzed using a xenon flash lamp or N2 laser systems for both the sample and a scatterer solution used to generate the instrument response function (IRF) used for deconvolution.
Spectroscopic equipment: Steady-state luminescence spectra were acquired with a PTI QuantaMaster Model QM-4 scanning spectrofluorometer equipped with a 75-watt xenon lamp. The UVN is absorption spectra were measured at 1-nm resolution on either a diode array spectrometer (Hewlett-Packard, model 8543) or a Perkin-Elmer Lambda-900 double-beam UVN is/NIR absorption spectrophotometer.

[2] = aqueous solution, literature; cited from earlier work

O=S(=O)([O-])c1cccc([PH](c2cccc(S(=O)(=O)[O-])c2)(c2cccc(S(=O)(=O)[O-])c2)[Au]([PH](c2cccc(S(=O)(=O)[O-])c2)(c2cccc(S(=O)(=O)[O-])c2)c2cccc(S(=O)(=O)[O-])c2)[PH](c2cccc(S(=O)(=O)[O-])c2)(c2cccc(S(=O)(=O)[O-])c2)c2cccc(S(=O)(=O)[O-])c2)c1 [Na8[Au(TPPTS)3], tris[tris(3,3′,3″-trisulfonatophenyl)phosphine]aurate(I)]
emission maximum [1]: 525 nm
emission band centre [2]: ~515 nm
